Substrate: CN(Cc1cnc2nc(N)nc(N)c2n1)c1ccc(C(=O)N[C@@H](CCC(=O)O)C(=O)O)cc1
Assay: The apparent Km of compound as a substrate for partially purified mouse liver Folyl-polyglutamate synthase

B1: Folylpolyglutamate synthase, mitochondrial (Mus musculus), P48760 (protein)
chain: MSWARSRLCSTLSLAAVSARGATTEGAARRGMSAWPAPQEPGMEYQDAVRTLNTLQTNASYLEQVKRQRSDPQAQLEAMEMYLARSGLQVEDLNRLNIIHVTGTKGKGSTCAFTERILRNYGLKTGFFSSPHMVQVRERIRINGKPISPELFTKHFWCLYNQLEEFKDDSHVSMPSYFRFLTLMAFHVFLQEKVDLAVVEVGIGGAFDCTNIIRKPVVCGVSSLGIDHTSLLGDTVEKIAWQKGGIFKPGVPAFTVVQPEGPLAVLRDRAQQIGCPLYLCPPLEALEEVGLPLSLGLEGAHQRSNAALALQLAHCWLERQDHQDIQELKVSRPSIRWQLPLAPVFRPTPHMRRGLRDTVWPGRTQILQRGPLTWYLDGAHTTSSVQACVHWYRQSLERSKRTDGGSEVHILLFNSTGDRDSAALLKLLQPCQFDYAVFCPNVTEVSSIGNADQQNFTVTLDQVLLRCLQHQQHWNGLAEKQASSNLWSSCGPDPAGPGSLLLAPHPPQPTRTSSLVFSCISHALLWISQGRDPIFQPQSLPRNLLNHPTANSGASILREAAAIHVLVTGSLHLVGGVLKLLDPSMSQ
Km: 165 µM
